Reference: ChEMBL document CHEMBL1765015, “Discovery of a potent and efficacious peptide derivative for δ/μ opioid agonist/neurokinin 1 antagonist activity with a 2',6'-dimethyl-L-tyrosine: in vitro, in vivo, and NMR-based structural studies” (J Med Chem, 2011)

By UniProt entry, the sequences of proteins in these tests, tags left out.
UniProt P14600, whole entry: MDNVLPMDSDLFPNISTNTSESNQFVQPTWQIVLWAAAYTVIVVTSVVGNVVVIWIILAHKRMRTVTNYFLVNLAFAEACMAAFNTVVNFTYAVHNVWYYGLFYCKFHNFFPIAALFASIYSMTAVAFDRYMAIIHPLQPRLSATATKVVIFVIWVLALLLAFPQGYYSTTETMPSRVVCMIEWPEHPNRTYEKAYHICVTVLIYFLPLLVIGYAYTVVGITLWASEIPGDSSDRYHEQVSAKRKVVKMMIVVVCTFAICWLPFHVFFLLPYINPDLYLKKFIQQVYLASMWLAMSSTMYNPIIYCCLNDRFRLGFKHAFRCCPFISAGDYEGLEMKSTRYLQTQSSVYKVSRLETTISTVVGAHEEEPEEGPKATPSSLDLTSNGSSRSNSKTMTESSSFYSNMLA

Target: Substance-P receptor (Rattus norvegicus, UniProt P14600)
Test: Displacement of [3H]substance P from rat NK1 receptor expressed in CHO cells
Type: cell-based

`CCCC[C@H](NC(=O)[C@H](Cc1ccccc1)NC(=O)CNC(=O)[C@@H](C)NC(=O)[C@@H](N)Cc1c(C)cc(O)cc1C)C(=O)N1CCC[C@H]1C(=O)N[C@@H](CC(C)C)C(=O)N[C@@H](Cc1c[nH]c2ccccc12)C(=O)NCc1cc(C(F)(F)F)cc(C(F)(F)F)c1` was tested, and the pIC50 was 7.28.

pIC50: −log10 of the molar value.
